Ab-14 light chain CDR variants: yeast mating affinities

Target peptide (SARS-CoV-2 spike, HR2 region): PDVDLGDISGINAS

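AAYL50 was designed without a model: most single CDR substitutions and a random sample of double and triple ones. Affinity was read by AlphaSeq, a pooled yeast mating assay with surface-displayed partners. Pairs that bind mate more often; barcode pairs of the diploids are counted by sequencing. A regression on co-assayed BCL2-family reference pairs converts the normalised counts of each replicate to an apparent Kd. Each pool was mated in three replicate cultures.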

Each scFv is VH, a (GGGGS)3 linker, VL, as in the parent Ab-14, and differs from it in the CDRs of the light chain only.
VH: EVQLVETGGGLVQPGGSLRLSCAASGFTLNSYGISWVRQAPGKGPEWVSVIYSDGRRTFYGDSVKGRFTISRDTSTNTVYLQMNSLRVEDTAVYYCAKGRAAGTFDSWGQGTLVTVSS
VL: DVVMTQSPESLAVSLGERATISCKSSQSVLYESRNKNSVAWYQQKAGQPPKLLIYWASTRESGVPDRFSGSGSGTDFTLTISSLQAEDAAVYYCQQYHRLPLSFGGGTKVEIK

Substitutions are numbered in sequence along the VL above, starting at 1 (not Kabat). This list gathers variants with a substitution at N35 (VL, numbered from residue 1). Affinities are written as log10 Kd with Kd in nM; a lower number is a better binder. Averages over replicates are reported, and they cover detected replicates only. "nd" means that the variant was in the library but no mating with the target was seen in any replicate; the authors take this as a sign of poor binding, and no number exists. For reference, the parent read 0.65 as the reference entry and 1.68 as a member of this library.

For N35D+K36L+A40P, the assay gave 6.24 (1 of 3 replicates; controls 4 of 9). The variant Y31G+N35V+H98P gave nd (0 of 3 replicates; controls 1 of 9). With S25H+N35F+P101T the result was nd (0 of 3 replicates; controls 0 of 9). The variant S25Y+N35C+H98Y showed 3.13 (3 of 3 replicates; controls 6 of 9). For S33I+N35H+L100N, the assay gave 4.19 (2 of 3 replicates; controls 3 of 9). The variant N35I+V39T+Q96A gave 6.02 (1 of 3 replicates; controls 5 of 9). The variant E32L+N35H+K36D showed 1.59 (3 of 3 replicates; controls 1 of 9). The variant N35E+Q96N+H98G gave 3.75 (1 of 3 replicates; controls 1 of 9).

The variant N35R+Q95K+R99G gave 3.13 (1 of 3 replicates; controls 4 of 9). With N35Q+Y97E+H98E the result was nd (0 of 3 replicates; controls 0 of 9). The variant L30D+N35F+W56M showed 0.49 (3 of 3 replicates; controls 2 of 9). The variant N35K showed 4.93 (1 of 3 replicates; controls 1 of 9). For K24V+N35V+A57F, the assay gave 4.64 (1 of 3 replicates; controls 3 of 9). With N35F+Y97G+P101G the result was 3.92 (1 of 3 replicates; controls 3 of 9). For S28H+Y31R+N35G, the assay gave 3.07 (3 of 3 replicates; controls 2 of 9). The variant N35W+A57D+R99L showed nd (0 of 3 replicates; controls 1 of 9).

For S25Q+S28W+N35Q, the assay gave 2.14 (3 of 3 replicates; controls 0 of 9). The variant S33W+N35L+A40L gave nd (0 of 3 replicates; controls 0 of 9). The variant V29F+N35Q+A57C gave 3.08 (3 of 3 replicates; controls 1 of 9). With N35S+V39R+S103I the result was nd (0 of 3 replicates; controls 0 of 9). The variant N35G+S38W+E61D showed nd (0 of 3 replicates; controls 1 of 9). With E32D+R34Q+N35T the result was 0.95 (3 of 3 replicates; controls 3 of 9). For V29W+R34D+N35Y, the assay gave 0.65 (3 of 3 replicates; controls 4 of 9). For K24L+R34V+N35Y, the assay gave 4.41 (1 of 3 replicates; controls 3 of 9).

With S33C+N35A+L102R the result was 5.45 (1 of 3 replicates; controls 6 of 9). With L30V+N35V+E61F the result was 2.12 (3 of 3 replicates; controls 0 of 9). For E32R+N35T+Q96E, the assay gave 2.90 (3 of 3 replicates; controls 3 of 9). For L30W+N35G+S58K, the assay gave 1.63 (3 of 3 replicates; controls 0 of 9). The variant N35F+A40F+Q96K showed 2.99 (3 of 3 replicates; controls 1 of 9). With N35V+R60C+P101C the result was nd (0 of 3 replicates; controls 0 of 9). For L30G+N35D+Q95M, the assay gave 5.17 (3 of 3 replicates; controls 6 of 9). The variant S25P+N35G+H98A gave 2.23 (3 of 3 replicates; controls 5 of 9).

For N35G, the assay gave 1.23 (3 of 3 replicates; controls 0 of 9). With N35S+N37K+P101A the result was 4.99 (3 of 3 replicates; controls 5 of 9). For N35E+N37G+L100Y, the assay gave 5.67 (1 of 3 replicates; controls 3 of 9). With N35Y+Y97N the result was 3.78 (1 of 3 replicates; controls 0 of 9). The variant Q27R+N35Q+W56T gave 2.07 (3 of 3 replicates; controls 1 of 9). For S33F+N35E+S38I, the assay gave 4.13 (2 of 3 replicates; controls 1 of 9).

The opening 3 entries, copied out:

N35D+K36L+A40P: 6.24 (1 of 3 replicates; controls 4 of 9).
Y31G+N35V+H98P: nd (0 of 3 replicates; controls 1 of 9).
S25H+N35F+P101T: nd (0 of 3 replicates; controls 0 of 9).

Nonspecific signal, from three strains lacking the peptide, appeared in 18% of pairings of library AAYL50, centred on 4.19 (5% of these signals below 2.99); values are not corrected for it. The control count says in how many pairings with the empty strains this scFv gave a signal.

Values reported by Engelhart et al. 2022, doi:10.1038/s41597-022-01779-4 (FLAb copy).